Sequences of proteins named here, by UniProt entry; tags and fusion partners are left off. A change or cut given only in a name is not applied to a line headed by its entry.
UniProt Q9NRG4: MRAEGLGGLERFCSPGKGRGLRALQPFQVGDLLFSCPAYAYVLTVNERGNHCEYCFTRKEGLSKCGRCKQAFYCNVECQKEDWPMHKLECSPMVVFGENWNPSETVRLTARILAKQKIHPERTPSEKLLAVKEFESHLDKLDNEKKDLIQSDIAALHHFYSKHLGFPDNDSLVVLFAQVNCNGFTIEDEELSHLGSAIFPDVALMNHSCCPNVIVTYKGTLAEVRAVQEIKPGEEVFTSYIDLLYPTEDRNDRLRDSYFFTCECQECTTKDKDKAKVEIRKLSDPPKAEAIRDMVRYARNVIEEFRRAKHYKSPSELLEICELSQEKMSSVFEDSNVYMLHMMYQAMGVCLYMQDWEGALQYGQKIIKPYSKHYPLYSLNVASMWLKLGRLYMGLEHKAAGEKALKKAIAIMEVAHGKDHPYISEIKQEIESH

According to patent US10023539B2, “Aryl-cyanoguanidine compounds” (Bayer Pharma Aktiengesellschaft, priority 2014, dated 2018):

How the values were obtained:
[1] = molecular target: T1, SMYD2 (Homo sapiens (Human), UniProt Q9NRG4); test: Scintillation Proximity Assay (SPA) for detection of SMYD2 enzymatic inhibition; assay type: biochemical; conditions: methylation of biotinylated p53 Peptide, 3H-SAM, full length SMYD2; read-out: IC50 [mol/l] (SPA Assay)
Procedure: 1.1 Scintillation Proximity Assay (SPA) for Detection of SMYD2 Enzymatic Inhibition
The SMYD2 full length enzyme was produced in-house by expression (with an N-terminal 6×His tag) in E. coli and purification by affinity chromatography on a Ni-NTA Sepharose column followed by a size exclusion chromatography step on a Superdex 200 16/60 column (GE Healthcare).
To this end, 100-fold concentrated compound solutions (in DMSO) were previously prepared by serial dilution (1:3.4) of 2 mM stocks in a clear low volume 384-well source microtiter plate (Greiner Bio-One), from which 50 nl of compound solutions were transferred into a white low volume test microtiter plate from the same supplier. […] The samples were then incubated for 15 min at 22° C. to allow pre-equilibration of the putative enzyme-inhibitor complexes before the start of the methylation reaction, which was initiated by the addition of 2.5 μl 2-fold concentrated solution (in assay buffer) of titrated S-Adenosyl-L-Methionine (3H-SAM, Perkin Elmer, final concentration: 60 nM) and p53 Peptide substrate (final concentration: 1.0 μM). The resulting mixture (5 μl final volume) was shortly centrifuged (2 min., 1500 rpm) and incubated at 22° C. during 30 min. Thereupon the reaction was stopped by adding 3 μl of Streptavidin PS SPA imaging beads (Perkin Elmer, final concentration of 3.12 μg/μl) and “cold” SAM (AK Scientific, 25 μM final concentration) for non-specific binding reduction. Plates containing the stopped reaction were sealed with transparent adhesive foil (Perkin Elmer), centrifuged (2 min., 1500 rpm), and further incubated for—at least—1 h at RT (or overnight at 4° C.) in order to allow the SPA signals to develop. […] IC50 values were calculated by fitting the normalized inhibition data to a 4-parameter logistic equation using the “Screener” analysis software from Genedata.

[2] = molecular target: T1, SMYD2; test: In Cell Western (ICW) cell-based assay for detection of SMYD2 methylation activity; conditions: SMYD2 overexpressing KYSE-150 cells, 72 h treatment, p53K370me1 signal; read-out: IC50 [mol/l] (ICW assay)

| IC50 [1] [nM] | IC50 [2] [nM] | Compound |
| --- | --- | --- |
| 82.5 | 176 | CCN(C(=O)CO)C1CN(/C(=N\C#N)Nc2cccc(OC(F)F)c2)N=C1c1ccc(Cl)c(Cl)c1 (racemic) [Example 4, Rac-N-[1-{N′-cyano-N-[3-(difluoromethoxy)phenyl]carbamimidoyl}-3-(3,4-dichlorophenyl)-4,5-dihydro-1H-pyrazol-4-yl]-N-ethyl-2-hydroxyacetamide] |
| 247 | 403 | CCN(C(=O)CO)C1CN(/C(=N\C#N)Nc2cccc(OC(F)F)n2)N=C1c1ccc(Cl)c(Cl)c1 (racemic) [Example 20, Rac-N-[1-{N′-cyano-N-[6-(difluoromethoxy)pyridin-2-yl]carbamimidoyl}-3-(3,4-dichlorophenyl)-4,5-dihydro-1H-pyrazol-4-yl]-N-ethyl-2-hydroxyacetamide] |
| 30 | 28.7 | CCN(C(=O)CO)C1CN(/C(=N\C#N)Nc2cc(OC(F)F)ccc2OC)N=C1c1ccc(Cl)c(Cl)c1 (single isomer, unassigned) [Example 18.2, N-[1-{N′-cyano-N-[5-(difluoromethoxy)-2-methoxyphenyl]carbamimidoyl}-3-(3,4-dichlorophenyl)-4,5-dihydro-1H-pyrazol-4-yl]-N-ethyl-2-hydroxyacetamide] |
| 159 | 2580 | CCN(C(=O)CO)C1CN(/C(=N\C#N)Nc2cccc(OCCN(C)C)c2)N=C1c1ccc(Cl)c(Cl)c1 (single isomer, unassigned) [Example 16.2, N-[1-(N′-cyano-N-{3-[2-(dimethylamino)ethoxy]phenyl}carbamimidoyl)-3-(3,4-dichlorophenyl)-4,5-dihydro-1H-pyrazol-4-yl]-N-ethyl-2-hydroxyacetamide] |
